In patent US20260132140A1, “IMIDAZOLYL-AMINO-PYRAZINE-CARBONITRILS AS CHK-1 INHIBITORS” (BenevolentAI Bio Limited, priority 2022, published 2026):

Tested on: 373 human wild-type kinases
Assay: Kinome selectivity, Eurofins KinaseProfiler kinase screen
Assay type: biochemical
Details: panel of 373 human wild-type kinases, approximately ATP Km, top concentration 10 μM
Text: The radiometric kinase activity assays were run at approximately the ATP Km for each kinase.

CN(C)[C@@H]1CCN(c2ccc(-n3cnc(Nc4cnc(C#N)cn4)c3)nc2)C1 [Example 50, (R)-5-((1-(5-(3-(Dimethylamino)pyrrolidin-1-yl)pyridin-2-yl)-1H-imidazol-4-yl)amino)pyrazine-2-carbonitrile]
Number of 372 kinases inhibited relative to Chk1 IC50 Within 10-fold: 1 | Number of 372 kinases inhibited relative to Chk1 IC50 Within 100-fold: 5

C[C@@H]1C[C@@H](N2CCC2)CN1c1ccc(-n2cnc(Nc3cnc(C#N)cn3)c2)cc1 [Example 98, 5-((1-(4-((2R,4R)-4-(Azetidin-1-yl)-2-methylpyrrolidin-1-yl)phenyl)-1H-imidazol-4-yl)amino)pyrazine-2-carbonitrile]
Number of 372 kinases inhibited relative to Chk1 IC50 Within 10-fold: 1 | Number of 372 kinases inhibited relative to Chk1 IC50 Within 100-fold: 8
